The results in this text go back to patent US20240010729A1, “COMBINATION THERAPY OF A PD-1 ANTAGONIST AND LAG3 ANTAGONIST AND LENVATINIB OR A PHARMACEUTICALLY ACCEPTABLE SALT THEREOF FOR TREATING PATIENTS WITH CANCER” (MERCK SHARP & DOHME LLC, priority 2020, published 2024).

SMILES strings stand for the structures.

The assay deals with KPC-2838c3 pancreatic model. As to the kind of experiment: KPC-2838c3 mouse syngeneic tumor model (tumor growth). It is filed as in vivo, mouse (C57BL/6J). The conditions noted are these: FIG. 2.

In the case of `COc1cc2nccc(Oc3ccc(NC(=O)NC4CC4)c(Cl)c3)c2cc1C(N)=O` [Lenvatinib, 4-[3-chloro-4-(cyclopropylaminocarbonyl)aminophenoxy]-7-methoxy-6-quinolinecarboxamide], the “anti-tumor efficacy (in words)” value is reported as “notable TGI”.
